pIC50: −log10 of the molar value.

Sequences of proteins named here, by UniProt entry; tags and fusion partners are left off.
UniProt P61073, whole entry: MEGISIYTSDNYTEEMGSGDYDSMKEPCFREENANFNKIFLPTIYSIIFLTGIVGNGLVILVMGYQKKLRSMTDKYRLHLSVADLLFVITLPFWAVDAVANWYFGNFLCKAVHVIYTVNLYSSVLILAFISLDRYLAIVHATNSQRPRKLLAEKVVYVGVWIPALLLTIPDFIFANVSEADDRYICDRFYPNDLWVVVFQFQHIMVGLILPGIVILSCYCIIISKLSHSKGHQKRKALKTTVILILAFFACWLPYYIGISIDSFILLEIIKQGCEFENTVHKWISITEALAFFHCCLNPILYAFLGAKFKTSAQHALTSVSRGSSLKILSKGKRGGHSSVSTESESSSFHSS

This experiment concerns the target C-X-C chemokine receptor type 4 (Homo sapiens, UniProt P61073). The experiment in a line: Inhibition of [125I]SDF-1alpha binding to CXCR4 (unknown origin) expressed in HEK293 cell membranes incubated for 1 hr by radioligand displacement assay. The method in brief: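 Scintillation proximity binding: receptor membranes (10−20 µg/well) on WGA beads (0.25 mg/well) incubated with peptide and [125I]-SDF-1α (0.20 nM for CXCR4, 0.25 nM for CXCR7). Room temperature, 1 h. Bound radioactivity counted 1 min/well. IC50 taken from inhibition of tracer binding.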

On to `N=C(N)NCCC[C@@H]1NC(=O)[C@H](CCCNC(=N)N)NC(=O)[C@@H](Cc2ccc(O)cc2)NC(=O)CNC(=O)[C@H](Cc2ccc3ccccc3c2)NC1=O`, for which the pIC50 was 5.92.

By pIC50 is commonly meant the IC50 on a negative log10 scale, so that one unit is a factor of ten. Read a high pIC50 as a low IC50.

These data come from ChEMBL document CHEMBL3580653, “Development of novel CXC chemokine receptor 7 (CXCR7) ligands: selectivity switch from CXCR4 antagonists with a cyclic pentapeptide scaffold” (J Med Chem, 2015).
